This is one part of the list.
Tested on: A. baumannii ATCC 17978
Experiment: relative growth (fraction of control); higher = less inhibition
Conditions: 50 µM

Question: With `COc1cc(N)ccc1N1CCCS1(=O)=O` as the compound, how does the relative growth read?
Answer: 0.962

Question: How did the relative growth turn out when `COCCCNC(=O)[C@@]1(Cc2ccccc2I)c2ccccc2C(=O)N(C2CCCCC2)[C@H]1c1ccc(CO)cc1` was run?
Answer: 0.845

Question: Which relative growth does the source give for `COc1cc2c(cc1OC)CN(C(=O)[C@H]1[C@@H]3C(=O)O[C@@H](c4ccccc4)[C@@H](c4ccccc4)N3[C@@H](c3ccc(O)cc3)[C@]13C(=O)Nc1ccccc13)CC2` here?
Answer: 0.9

Question: With `Cc1ccc(-c2c[nH]c(=S)[nH]2)cc1` as the compound, how does the relative growth read?
Answer: 0.968

Question: How did the relative growth turn out when `O=C(O)Cn1c(=O)oc2ccccc21` was run?
Answer: 0.953

Question: With `C=CCOC(=O)[C@H]1[C@@H]2C(=O)O[C@@H](c3ccccc3)[C@@H](c3ccccc3)N2[C@@H](c2ccc(OCCOC(=O)[C@@H]3C[C@@H]4C(=O)N[C@@H](CCCC[N+](C)(C)C)C(=O)N4[C@@H]3c3cccc(OCCO)c3)cc2)[C@]12C(=O)Nc1ccc(I)cc12` as the compound, how does the relative growth read?
Answer: 1.64

Question: Which relative growth does the source give for `CN(C[C@@H](O)CN)S(=O)(=O)c1ccccc1` here?
Answer: 0.994

Question: How did the relative growth turn out when `O=C(C[C@@H]1CC[C@@H]2[C@H](COC[C@H](O)CN2S(=O)(=O)c2ccc(F)cc2)O1)N[C@H]1CCN(Cc2ccccc2)C1` was run?
Answer: 1.1

Question: For `COc1ccc(NC(=O)O[C@H]2[C@H](OC(=O)Nc3ccccc3-c3ccccc3)[C@@H](OC(=O)Nc3ccccc3-c3ccccc3)[C@@H](OC)O[C@@H]2COC(=O)NCCCCCC(=O)NO)cc1`, which relative growth is on record?
Answer: 0.857

Question: For `NCc1nncn1-c1ccccc1`, which relative growth is on record?
Answer: 1.03

Question: How did the relative growth turn out when `NC[C@H]1CC[C@H](C(=O)N2CCC(c3ccncc3)CC2)CC1` was run?
Answer: 1.08

Question: How did the relative growth turn out when `O=C(NCC[C@@H]1CC[C@@H](NS(=O)(=O)c2cccc(F)c2)[C@@H](CO)O1)C1CC1` was run?
Answer: 1.2

Question: How did the relative growth turn out when `Cc1cc(C(C)(C)C)c(O)c(C)c1CC1=NCCN1.Cl` was run?
Answer: 1.02

Question: For `C=C1[C@H]2CC[C@@]3(C)[C@H](c4ccoc4)OC(=O)C[C@]13O[C@H]1C[C@H](O)C(C)(C)[C@H](CC(=O)OC)[C@]12C` [METHYL 3-DEOXY-3beta-HYDROXYANGOLENSATE], which relative growth is on record?
Answer: 1.03

Question: How did the relative growth turn out when `C[C@H](O)C#Cc1ccc2c(c1)O[C@@H](CN(C)C(=O)c1ccncc1)[C@H](C)CN([C@@H](C)CO)S2(=O)=O` was run?
Answer: 1.04

Question: How did the relative growth turn out when `CN(C)Cc1cn(CC[C@@H]2CC[C@H](NS(=O)(=O)c3ccccc3)[C@H](CO)O2)nn1` was run?
Answer: 1.03

Question: How did the relative growth turn out when `CN1C(=O)c2cc(NC(=O)C3CCCC3)ccc2OC[C@@H]2O[C@@H](CC(=O)NCCc3ccncc3)CC[C@H]21` was run?
Answer: 1.05

Question: `NS(=O)(=O)c1cc2c(cc1C(F)(F)F)NC(Cc1ccccc1)NS2(=O)=O` (stereo not drawn) was tested. Which relative growth did it give?
Answer: 1

Question: How did the relative growth turn out when `COc1cccc(NC(=O)N[C@H]2CC[C@@H](CC(=O)N3CCOCC3)O[C@@H]2CO)c1` was run?
Answer: 0.961

Question: `COc1ccc([Si](C)(C)[C@@H]2[C@@H](CCn3cc([C@H](O)c4ccccc4)nn3)O[C@]3(C(=O)N(Cc4ccc(N5C(=O)c6cccc7cccc5c67)cc4)c4ccccc43)[C@H]2C)cc1` was tested. Which relative growth did it give?
Answer: 1.14

Question: For `COCC#Cc1ccc2c(c1)O[C@@H](CN(C)S(=O)(=O)c1cccc(F)c1)[C@H](C)CN([C@H](C)CO)S2(=O)=O`, which relative growth is on record?
Answer: 0.902

Question: For `CCCCC(=O)O[C@]1(C(=O)CO)[C@@H](C)CC2C3CCC4=CC(=O)C=C[C@]4(C)[C@@]3(F)C(O)C[C@@]21C` (stereo partly drawn), which relative growth is on record?
Answer: 0.907

Question: `O=C(c1ccccc1F)N1c2ccccc2Sc2ccccc21` was tested. Which relative growth did it give?
Answer: 1.05

From published antibiotic growth screens (doi:10.1038/s41589-023-01349-8)
